The results in this text go back to patent publication US20230165794A1, “OMEGA FATTY ACIDS-RICH OIL DISPERSION FORMULATIONS” (BIOPLUS LIFE SCIENCES PVT. LTD., priority 2020, published 2023).

The data set concerns Caco-2 cells. Put plainly: Transepithelial electrical resistance (TEER). Particulars: positive control, 1 μg/mL, 48 h.

Regarding lipopolysaccharides, the “change in TEER value in comparison to negative control” value is listed as “significant (p<0.001) decrease”.
